From patent US5753673A, “Quinolinecarboxylic acid derivatives” (Taisho Pharmaceutical Co., Ltd., priority 1994, dated 1998)
pIC50: −log10 of the molar value.

Chains of the proteins cited; added tags and fusions are not shown. Residues count along the entry.
UniProt P35563, 24-483: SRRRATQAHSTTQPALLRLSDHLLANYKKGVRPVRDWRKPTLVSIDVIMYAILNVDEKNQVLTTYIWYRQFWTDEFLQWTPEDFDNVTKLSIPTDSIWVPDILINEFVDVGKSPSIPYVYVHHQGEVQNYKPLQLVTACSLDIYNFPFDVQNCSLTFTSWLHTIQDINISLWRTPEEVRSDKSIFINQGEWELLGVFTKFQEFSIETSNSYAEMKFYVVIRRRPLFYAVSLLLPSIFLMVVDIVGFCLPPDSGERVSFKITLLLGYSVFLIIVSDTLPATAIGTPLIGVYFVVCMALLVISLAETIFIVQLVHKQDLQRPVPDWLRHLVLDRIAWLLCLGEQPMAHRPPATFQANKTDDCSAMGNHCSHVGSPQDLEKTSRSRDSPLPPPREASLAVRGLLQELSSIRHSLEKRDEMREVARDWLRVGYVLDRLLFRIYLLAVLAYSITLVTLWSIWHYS
UniProt P61169, whole entry: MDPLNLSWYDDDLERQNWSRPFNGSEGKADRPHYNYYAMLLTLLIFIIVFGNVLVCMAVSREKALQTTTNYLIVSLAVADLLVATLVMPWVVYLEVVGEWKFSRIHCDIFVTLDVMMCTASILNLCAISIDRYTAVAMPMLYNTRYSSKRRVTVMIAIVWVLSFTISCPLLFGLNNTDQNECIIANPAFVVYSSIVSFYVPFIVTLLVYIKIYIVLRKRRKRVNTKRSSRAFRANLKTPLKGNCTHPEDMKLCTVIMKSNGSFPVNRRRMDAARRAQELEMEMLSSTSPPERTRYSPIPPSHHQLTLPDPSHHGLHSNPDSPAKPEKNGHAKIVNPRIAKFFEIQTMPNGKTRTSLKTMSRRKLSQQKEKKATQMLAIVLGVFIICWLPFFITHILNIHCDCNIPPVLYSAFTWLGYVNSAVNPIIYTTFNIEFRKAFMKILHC

Legend:
5-HT3 receptor = target: T1, 5-HT3 receptor (Rattus norvegicus, UniProt P35563); assay: Selectivity for receptors: 5-HT3 receptor, inhibition of [^3 H]GR65630 binding to rat cerebral cortex membrane
T1 construct: The rat cerebral cortex was homogenized in 50 mM Tris hydrochloride buffer; from tissue; host or cells: rat cerebral cortex membranes
Description: (§1) The selectivity for receptors of the quinolinecarboxylic acid derivatives of the present invention was examined by the following method.
The affinity for serotonin 3 receptor was examined by the method described in […], G. J. et al., Nature (London), 330, 746-748 (1987).
The affinity to serotonin 3 (5-HT3) was examined in terms of inhibition of [^3 H]GR65630 binding (Daiichi Kagaku Yakuhin Co.) binding to rat cerebral cortex membrane. The rat cerebral cortex was homogenized in 50 mM Tris hydrochloride buffer (pH 7.4) followed by centrifugation at 48,000 G. The precipitates were washed once with Tris hydrochloride buffer. Then the precipitates were suspended in 50 mM Tris hydrochloride buffer and provided for use as the membrane preparation. The membrane preparation was reacted with 0.2 nM [^3 H]GR65630 at 37° C. for 30 minutes. After the reaction, the membrane was caught by a harvester. Non-specific binding was defined as the binding taken in the presence of 1 μM zacopride.

Dopamine D2 receptor = target: T2, Dopamine D2 receptor (Rattus norvegicus, UniProt P61169); assay: Selectivity for receptors: dopamine D2 receptor, inhibition of [^3 H] raclopride binding to rat striatal membrane
T2 construct: The rat striatum was homogenized in 50 mM Tris hydrochloride buffer; from tissue; host or cells: rat striatal membranes
Description: as §1
The affinity to dopamine 2 (D2) receptor was examined according to the method described in MALMBERG, A. et al., Mol Pharmacol., 43, 749-754 (1993).
The affinity for D2 receptor was studied in terms of the inhibition of [^3 H] raclopride (Daiichi Kagaku Yakuhin Co.) binding to rat striatal membrane. The rat striatum was homogenized in 50 mM Tris hydrochloride buffer (pH 7.4) followed by centrifugation at 48,000 G. The pellet was washed once with Tris hydrochloride buffer. Then the pellet was suspended in 50 mM Tris hydrochloride buffer (containing 120 mM NaCl, 5 mM KCl, 2 mM CaCl2, 1 mM MgCl2, pH 7.4) and provided for use as the membrane preparation. The membrane preparation (0.5 mg protein/ml) was reacted with 1 nM [3H] raclopride at 25° C. for 60 minutes. After the reaction, the membrane was caught by a harvester. Non-specific binding was defined as that taken in the presence of 10 μM haloperidol.

## COc1cc(N)c(Cl)cc1C(=O)N[C@@H]1CCN(CCCOc2ccc(F)cc2)C[C@@H]1OC (relative stereo) [Comparative Compound 1, Cisapride, reference compound]
5-HT3 receptor
  pIC50: 7.01
Dopamine D2 receptor
  pIC50: 6.97
